Compounds with a hit are over-represented: about 16% of the library has one in this group of screens.
uPA surface inh: cell surface uPA generation inhibition. cell surface uPA generation assay, qHTS. Potency, µM (series often up to 38.3 µM), for the others: at the highest dose activity change, negative = inhibition, usual class: inhibitors. 330,000 compounds, 0.31% hits; active = well fitted inhibition curve with a large enough effect; inconclusive = small, poorly fitted or top-dose-only effect; inactive = no such curve, though single readings can be large or run the other way; tested in mouse RAW 264.7 cells; also: potency is read from the fitted curve at half-maximal effect; % is scaled to controls: 0 for no effect and ±100 for the full control effect; nearly all actives have a fitted effect of over 55% in size
TDP1 block: TDP1 (human) enzyme inhibition; Q9NUW8; recombinant TDP1, AlphaScreen DNA substrate cleavage; Potency, µM (top dose mostly 130 µM), for inactives: at the highest dose activity change, negative = inhibition, actives largely listed as inhibitors; 350,000 compounds, 0.28% hits; also: potency is read from the fitted curve at half-maximal effect; % is scaled to controls: 0 for no effect and ±100 for the full control effect; nearly all actives have a fitted effect of over 40% in size
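Steps: enzyme plus compound, 15 min RT; add biotin/phosphotyrosine-FITC oligonucleotide (15 nM final), react 5 min; add donor/acceptor beads (10 ug/ml final), 10 min; read AlphaScreen. Tdp1 at 1 nM final.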
TDP1 cell CPT: growth inhibition of DT40 Tdp1-/-;hTDP1 cells with camptothecin (screen for TDP1 inhibitors); chicken DT40 Tdp1-/-;hTDP1 cells + 20 nM CPT, ATP luminescence, 48 h; Potency, µM (top dose mostly 46.2 µM), without a hit: top-dose activity change, negative = growth inhibition, actives largely listed as inhibitors; 420,000 compounds, 12% hits; also: potency is read from the fitted curve at half-maximal effect; % is scaled to controls: 0 for no effect and ±100 for the full control effect; nearly all actives have a fitted effect of over 55% in size
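Chicken DT40 Tdp1-/- cells complemented with human TDP1, 400 cells/well, exposed to compounds plus 20 nM camptothecin for at least 48 h at 37 C; viability read as ATP content by CellTiter-Glo luminescence.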
miR-21 reporter: miR-21 reporter, rising signal; HeLa miR-21 FLuc reporter, luciferase, 48 h; Potency, µM (doses to about 38.3 µM), for inactives: at the highest dose reporter change, positive = more light; 340,000 tested, under 10 active; AID 2288; active = well fitted rising curve with a large enough effect; inconclusive = small, poorly fitted or top-dose-only effect; inactive = no such curve, though single readings can be large or run the other way;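 further: % of control where 0% means no effect; miR-21 action dims this reporter so a rising signal means less miR-21 action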
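HeLa miR-21-FLuc reporter line, endogenous miR-21; 2000 cells/well in DMEM/10% FBS; compound titration up to ~40uM final, 48 h, 37 degree Celsius; luciferase detection reagent, 15 min lysis, CCD luminescence.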
TDP1 cell noCPT: qHTS for Inhibitors of human tyrosyl-DNA phosphodiesterase 1 (TDP1): qHTS in cells in absence of CPT; DT40 Tdp1-/- hTDP1 cells, no CPT, ATP luminescence, 48 h; Potency, µM (titrated, usually from 46.2 µM), for the others: at the top dose activity change, negative = growth inhibition, actives largely listed as inhibitors; 420,000 compounds, 15% hits; also: potency is read from the fitted curve at half-maximal effect; % is scaled to controls: 0 for no effect and ±100 for the full control effect; nearly all actives have a fitted effect of over 55% in size
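Chicken DT40 Tdp1-/- cells stably complemented with human TDP1 were seeded at 400 cells/well with DMSO in place of 20 nM camptothecin. After compound pinning, cells grew at least 48 hr at 37 °C; viability read by CellTiter-Glo luminescence.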
* hit, by the source's call; ? = inconclusive; / = not tested or not shown. Unless noted, calls follow the shape of the dose curve; as a rule, active = well fitted curve in the direction sought with a large enough effect; inconclusive = small, poorly fitted or top-dose-only effect, or another doubt; inactive = no such curve, though single readings can be large; an effect the other way counts as inactive or inconclusive.

[1] CC(=O)O[C@H]1[C@H](C)OC=C[C@@H]1OC(C)=O
[2] COc1ccc(CN(Cc2nc3ccccc3c(=O)[nH]2)C(=O)C(C)(C)C)cc1
[3] CCN(CC(=O)Nc1ccc(C(=O)Nc2ccc(OC)cc2)cc1)Cc1nc2ccccc2c(=O)[nH]1
[4] CCC(CC)C(=O)N(CCc1ccc(OC)cc1)Cc1nc2ccccc2c(=O)[nH]1
[5] CCc1nnc(NC(=O)c2cc(-c3cccnc3)nc3ccccc23)s1
[6] Cc1ccc(-c2ccc(/C=C3\SC(N4CCOCC4)=NC3=O)o2)cc1
[7] Cc1ccc(/C=C2\SC(N3CCN(C(c4ccccc4)c4ccccc4)CC3)=NC2=O)o1
[8] O=C1N=C(N2CCOCC2)SC1=Cc1ccco1
Assay by compound,1,2,3,4,5,6,7,8
uPA surface inh,-7%,0%,11%,-5%,-3%,-7%,-7%,-1%
TDP1 block,/,2%,4%,8%,-8%,5%,-3%,/
TDP1 cell CPT,?,?,?,23µM*,-9%,10µM*,15µM*,4%
miR-21 reporter,0%,-4%,-19%,25%,-1%,0%,0%,/
TDP1 cell noCPT,16µM*,?,23µM*,21µM*,?,9.2µM*,12µM*,-19%

One compound at a time (already shown).
`COc1ccc(CN(Cc2nc3ccccc3c(=O)[nH]2)C(=O)C(C)(C)C)cc1` is entered as uPA surface inh = 0%; TDP1 block = 2%; TDP1 cell CPT = ?; miR-21 reporter = -4%; TDP1 cell noCPT = ?
`CCC(CC)C(=O)N(CCc1ccc(OC)cc1)Cc1nc2ccccc2c(=O)[nH]1` is entered as uPA surface inh = -5%; TDP1 block = 8%; TDP1 cell CPT = 23µM*; miR-21 reporter = 25%; TDP1 cell noCPT = 21µM*

Other results.
[9] O=C1N=C(N2CCOCC2)S/C1=C/c1ccc(-c2ccc(F)cc2)o1
[10] CCc1ccc(OCC(=O)N/N=C2\CC(=O)c3ccccc32)cc1
[11] O=[N+]([O-])c1ccc(N/N=C/c2sc(N3CCOCC3)nc2-c2ccccc2)c(S(=O)(=O)Nc2ccc(Cl)cc2)c1
[12] O=[N+]([O-])c1ccc(N/N=C/c2sc(N3CCOCC3)nc2-c2ccccc2)c(S(=O)(=O)Nc2ccccc2Cl)c1
[13] O=C(N/N=C/c1sc(=O)n(Cc2ccc(Br)cc2)c1Cl)c1ccco1
[14] COc1ccc(C(=O)Nc2cc(-c3ccccc3)nn2-c2ccccc2)cc1
[15] COc1ccc(C(=O)Nc2cc(-c3ccccc3)nn2-c2ccccc2F)cc1
[16] CCc1nnc(SCC(=O)Nc2ccc(Cl)cc2F)c2cc3occc3n12
Assay by compound,9,10,11,12,13,14,15,16
uPA surface inh,-5%,/,?,-1%,-7%,/,7%,/
TDP1 block,0%,8%,11%,1%,40µM*,3%,/,3%
TDP1 cell CPT,?,/,1.6µM*,3.3µM*,?,?,23µM*,23µM*
miR-21 reporter,-18%,-15%,0%,22%,-2%,-14%,/,-22%
TDP1 cell noCPT,21µM*,/,1µM*,1.8µM*,?,?,?,15µM*

[17] CCC(Sc1nnc(C)n2c1cc1occc12)C(=O)Nc1ccccc1F (stereo unspecified)
[18] CCN1CCN=C1Nc1ccccc1
[19] O=C(O)CNc1ccccc1C(=O)O
[20] CCc1ccccc1N1C(=O)CN(Cc2cc(OC)c(OC)c(OC)c2)C1=S
[21] CCc1ccc(N2C(=O)CN(Cc3cc(OC)c(OC)c(OC)c3)C2=S)cc1
[22] COc1cc(CN2CC(=O)N(c3cc(Cl)ccc3C)C2=S)cc(OC)c1OC
[23] COc1cc(CN2CC(=O)N(c3ccc(C)c(C)c3)C2=S)cc(OC)c1OC
[24] COc1ccc(CN2CC(=O)N(c3cc(Cl)ccc3C)C2=S)cc1OC
Assay by compound,17,18,19,20,21,22,23,24
uPA surface inh,/,5%,4%,0%,-7%,-10%,-7%,-6%
TDP1 block,-3%,0%,/,/,0%,/,5%,/
TDP1 cell CPT,21µM*,9%,3%,?,16µM*,21µM*,?,?
miR-21 reporter,?,/,2%,5%,3%,13%,-9%,-8%
TDP1 cell noCPT,26µM*,5%,-2%,21µM*,23µM*,21µM*,?,?

[25] CC(=O)c1cccc(S(=O)(=O)NCCC(=O)Nc2ccc(S(N)(=O)=O)cc2)c1
[26] COc1cc(OC)nc(Oc2cc(C=O)ccc2OC)n1
[27] O=C1N=c2ccccc2=C1c1c(O)n(-c2cccc(F)c2)[nH]c1=O
[28] CC(C)CSc1ncc(-c2cccc(C(F)(F)F)c2)cn1
[29] CC(C)(CN=C1NS(=O)(=O)c2ccccc21)CNC(=O)c1ccccc1
[30] O=C(CN1CCC(n2nnc3cc(C(F)(F)F)ccc32)CC1)Nc1ccc2c(c1)CCC2
[31] CC1Cc2ccccc2N1C(=O)CN1CCC(n2nnc3cc(C(F)(F)F)ccc32)CC1 (stereo unspecified)
[32] COC(=O)c1ccccc1NC(=O)CN1CCC(n2nnc3cc(C(F)(F)F)ccc32)CC1
Assay by compound,25,26,27,28,29,30,31,32
uPA surface inh,-5%,-6%,2%,6%,8%,5%,-2%,4%
TDP1 block,0%,/,-6%,-1%,3%,-1%,-6%,8%
TDP1 cell CPT,2%,-6%,21µM*,4%,-20%,?,?,-3%
miR-21 reporter,2%,5%,-8%,0%,7%,2%,?,-1%
TDP1 cell noCPT,5%,-36%,?,?,-30%,21µM*,23µM*,-29%

[33] O=C(COC(=O)C1CC(=O)N(Cc2ccccc2)C1)Nc1ccc([N+](=O)[O-])cc1Br (stereo unspecified)
[34] CCc1ccc(CN(C(=O)c2ccco2)C2CCS(=O)(=O)C2)cc1 (stereo unspecified)
[35] CSCCC(NC(=O)COc1ccccc1)C(=O)N1CCN(c2ccccc2F)CC1 (stereo unspecified)
[36] CSCCC(NC(=O)COc1ccccc1)C(=O)N1CCCCCC1 (stereo unspecified)
[37] CCN(CC)S(=O)(=O)c1ccc2c(c1)nc(CCC(=O)Nc1ccccc1Cc1ccccc1)n2CC
[38] Cc1scc(C(=O)N2CCN(S(C)(=O)=O)CC2)c1-c1ccccc1
[39] FC(F)(F)c1cc(CN2CCC3(CCNCC3)CC2)cc(C(F)(F)F)c1
[40] CCC(C)Nc1nc(Cl)nc(N(C#N)CN2C(=O)c3ccccc3S2(=O)=O)n1 (stereo unspecified)
Assay by compound,33,34,35,36,37,38,39,40
uPA surface inh,/,-1%,8%,9%,?,/,/,-2%
TDP1 block,/,/,0%,0%,7%,7%,/,8%
TDP1 cell CPT,-1%,0%,15µM*,-24%,21µM*,-27%,6.5µM*,15µM*
miR-21 reporter,/,-2%,-5%,/,3%,-5%,/,-1%
TDP1 cell noCPT,4%,?,23µM*,?,23µM*,-15%,4.6µM*,?

[41] COCCOC(=O)C1=C(C)NC(=O)NC1c1ccco1 (stereo unspecified)
[42] O=[N+]([O-])/C=C\c1ccc(N2CCOCC2)cc1
[43] CCOc1ccc(/C=N/Nc2ccccn2)cc1
[44] C(=N\Nc1ccccn1)/c1ccc(N2CCOCC2)cc1
[45] O=C(COc1ccc(/C=C\[N+](=O)[O-])cc1)N1CCOCC1
[46] O=[N+]([O-])c1cccc(N/N=C/c2ccc(N3CCOCC3)cc2)c1
[47] Clc1cccc(N/N=C/c2ccc(N3CCOCC3)cc2)c1
[48] Clc1ccc(/C=N/Nc2ccccn2)cc1
Assay by compound,41,42,43,44,45,46,47,48
uPA surface inh,1%,8.9µM*,6.3µM*,-6%,-21%,1%,6%,0%
TDP1 block,/,/,5%,-9%,6%,9%,9%,2%
TDP1 cell CPT,-9%,15µM*,?,23µM*,?,18µM*,-4%,-18%
miR-21 reporter,-1%,/,-43%,-63%,8%,-54%,-54%,-54%
TDP1 cell noCPT,0%,16µM*,?,16µM*,?,16µM*,4%,-23%
